Test results reported in patent US20140349922A1 (priority 2011, published 2014).

Tests used:
[1] = Pharmacokinetic study of OXM and PEG40-Fmoc-OXM after single IV or SC dose in rats; assay type: in vivo, male Wistar rats
[2] = Pharmacokinetic profile of OXM, PEG10-Fmoc-OXM and PEG20-Fmoc-OXM after single SC injection in rats; assay type: in vivo, male Wistar rats; conditions: […] peptide content

With Oxyntomodulin [OXM] the “F % (bioavailability)” value ([1]; IV) was 100%, the MRT ([1]; IV) was 24.8 min and the “T 1/2 term.” value ([1]; IV) was 26.4 min. For the same substance, the “F % (bioavailability)” value ([1]; SC) was 4.37%, the MRT ([1]; SC) was 54.8 min and the “T 1/2 term.” value ([1]; SC) was 41.4 min. For the same substance, the “T 1/2 term.” value [2] was 9 min.
